## Yeast mating assay 1: variants of the scFv Ab-14

Source: Engelhart et al. 2022 (doi:10.1038/s41597-022-01779-4), MIT Lincoln Laboratory and A-Alpha Bio; data file from the FLAb repository.

The target is the same throughout: PDVDLGDISGINAS, from the HR2 region of SARS-CoV-2 spike.

Each scFv is VH, three GGGGS repeats, VL, as in the parent Ab-14, and differs from it in the CDRs of the heavy chain only.
VH: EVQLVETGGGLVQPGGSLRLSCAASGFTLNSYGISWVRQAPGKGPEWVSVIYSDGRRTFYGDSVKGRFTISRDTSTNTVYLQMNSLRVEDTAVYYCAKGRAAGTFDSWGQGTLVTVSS
VL: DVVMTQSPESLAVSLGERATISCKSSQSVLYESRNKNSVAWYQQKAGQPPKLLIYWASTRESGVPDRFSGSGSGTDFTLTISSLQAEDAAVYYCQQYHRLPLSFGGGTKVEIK

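Phage display of a naive human antibody library on the peptide gave the parent. Variants in AAYL49 differ from the parent at up to three CDR positions; double and triple changes were sampled at random. AlphaSeq pools MATa yeast showing the antibodies with MATalpha yeast showing the peptide. Binding brings cells together so that they mate, and sequencing counts the barcode pairs among the diploids. Scores were corrected for input abundance and mapped to Kd with protein pairs of known affinity run in the same pool. Mating was done three times.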

Variants are written as CDR1, CDR2 and CDR3 of the heavy chain (limits as in the source). Parent: GFTLNSYGIS, VIYSDGRRTFYGDSVK, GRAAGTFDS.
All variants listed here change T58 of the VH, counted from its first residue.
Scale: log10 of Kd in nM, estimated from mating counts; low values are strong binders.
The mean shown is taken over the replicates in which the pair was detected.
An entry "nd" has no value in the source: the pair was not observed among the diploids in that replicate. This suggests poor binding but is not conclusive.
Parent in this assay: reference entry 0.65, copy in this library 4.11 (one replicate of three).

The variant GFTLNSYGIS / VIYSDGRRPFYGDSVK / GRAAGTFGS showed 2.85, 4.01, nd (mean 3.43). The variant GFTCNHYGIS / VIYSDGRRPFYGDSVK / GRAAGTFDS gave nd, nd, nd. The variant GFTLNEYGIS / VIYSDGRRNFYGDSVK / GRAAGHFDS showed nd, nd, nd. The variant GFTLNSYGIS / VIYSDGRREFYGDSVK / GRAAGTFDS showed 2.77, 3.04, 3.40 (mean 3.07). The variant GFTLNSYGIS / VIYYDGRRCFYGDSVK / GRAAGDFDS gave nd, nd, nd. The variant GFTLNSYGIS / VIYSDGRRRFYGDSVK / WRAACTFDS gave nd, 2.89, 2.62 (mean 2.75). For GFTLNSYGIS / VIYSDGRAGFYGDSVK / GRAAGTRDS, the assay gave 5.65, nd, nd.

With GFTLNSYGIS / VIYSDGCRFFYGDSVK / GRMAGTFDS the result was nd, nd, nd. The variant GFTLNSYGIS / VIYSDGRRPFYGDVVK / GRAAGTVDS gave nd, nd, nd. For GWTLNSYGIS / VIYSDGRREFYGDSVK / LRAAGTFDS, the assay gave 2.47, nd, nd. With GFTLNSYGIS / VIYSPGDRFFYGDSVK / GRAAGTFDS the result was nd, nd, 5.05. With GFTLNSYGIS / VIYSDGRRWFYGDHVK / GRAAITFDS the result was 5.16, 4.10, nd (mean 4.63). For GFTLMSYGIS / VIYSDGRRQFYGDSVK / GRAAGPFDS, the assay gave nd, 3.60, nd. The variant GFTLNSKGIS / VIYSDGRRFFYGDSVK / PRAAGTFDS showed 3.66, 3.06, nd (mean 3.36).

The variant GFTLNSYGIS / VIYSDGRRKFYCDSVK / GRAAGTFDS showed 2.48, 1.68, 2.33 (mean 2.16). The variant GFTLNSYGIS / VIHSDGRRSFYGRSVK / GRAAGTFDS gave nd, nd, nd. The variant GFTLNSYGIS / IIYSDGRRHFYGDSVK / GRAAGTFDC gave 3.19, 3.62, nd (mean 3.40). With GFTLNSYGIA / VIYSDGRRYFYGDSVK / GRLAGTFDS the result was 3.81, nd, nd. The variant MFTLNSYGIS / VIYSDGRRLFYGDSVK / GRANGTFDS showed nd, nd, nd. The variant GFTLNSIGIS / VIYSDGRRQFYGDSVK / GRAAGTPDS gave 4.54, 4.46, 4.98 (mean 4.66). For GFTLNSYGIS / VIPSDGRYFFYGDSVK / GRAAGTFDS, the assay gave nd, nd, nd.

The variant GFTLNSYGIS / VIYSDGRRAFYGDSVK / GRAAGTFDS gave 0.71, 1.00, 0.73 (mean 0.82). The variant GFTLNSYGIS / VIYSDGRRNFYADSVK / GRLAGTFDS showed 0.26, 0.59, 0.42 (mean 0.43). For GFTVNSYGIS / VIYSDGRREFYGDSVK / GRAAGTFDS, the assay gave 2.17, 2.38, 2.46 (mean 2.34). For GFTLNSYGIS / VKYSDGRRFFYGDSVP / GRAAGTFDS, the assay gave nd, nd, 5.09. For GFTLNSYGIS / VIYSDGRRLFMGDSVI / GRAAGTFDS, the assay gave nd, nd, nd. With GFTLNSYGIS / VIYSAGRRWFYGWSVK / GRAAGTFDS the result was nd, nd, nd. With GFTLNSYGIS / VIYSDGRRDFYGDSVK / GRAAGTFIS the result was 3.31, 2.94, 3.27 (mean 3.18).

With GFTLNSYGIS / VTYSDGRRYKYGDSVK / GRAAGTFDS the result was nd, nd, nd. For GFTLNSYGIS / VIYSDGRQSFYGDSVK / GRAAGTFTS, the assay gave nd, nd, 2.60. The variant GFTLNSYLIS / VIYSDGRRSFYGDSVK / GRPAGTFDS showed 4.15, 4.38, 4.39 (mean 4.31). The variant GFTLNSYGIS / VIYSDGRRWFYGDSGD / GRAAGTFDS gave nd, nd, nd. With GFTLNSYGIS / VIYSDGRRHFYVDSVK / GRAAGTFDS the result was 0.93, 1.06, 1.22 (mean 1.07). The variant GFTLNSYGIW / VIYSDGRLCFYGDSVK / GRAAGTFDS gave nd, nd, 4.72. With GFTLNSYGIS / VIYSVVRRQFYGDSVK / GRAAGTFDS the result was nd, nd, nd.

The variant GFTLNSYGIS / VIYSDGRRSFYGDSVK / ARASGTFDS gave 4.19, 2.56, 3.16 (mean 3.31).

For reference, 3 entries of the list once more:

The variant MFTLNSYGIS / VIYSDGRRLFYGDSVK / GRANGTFDS gave nd, nd, nd.
The variant GFTLNSYGIS / VIHSDGRRSFYGRSVK / GRAAGTFDS gave nd, nd, nd.
The variant GFTLNSYGIW / VIYSDGRLCFYGDSVK / GRAAGTFDS gave nd, nd, 4.72.

Empty control strains, which show no peptide, gave a signal in 15% of pairings with library AAYL49; the median was 4.06 and 95% of these signals were weaker than 2.83. No background was subtracted.